PubChem BioAssay AID602254 (Broad Institute, 2012)
This is a selection; strong and weak results do not stand in their true shares. Potency and affinity values are given separately. Activity calls are given as the source filed them.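 The calls were made as follows: active = fitted half-maximal concentration no higher than twice the top valid tested dose, with signal falling; inconclusive = flat curve with 30 to 70% inhibition, or poor fit; inactive = the rest.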

target: Golgi-associated PDZ and coiled-coil motif-containing protein (Homo sapiens) (UniProt Q9HD26); assay: blockers of CAL PDZ–TMR peptide complex – biochemical, fluorescence polarization, untagged CAL PDZ, cherry-pick, set 2, dose response (AID 602254); details: Purified CAL PDZ; at 60 µM (top of the series);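 also: 0% = DMSO neutral control and -100% = unlabeled peptide PRC23 positive control; more negative means stronger blocking of peptide binding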

Compound	activity change, negative = inhibition
COc1ccc(N/C(=N/P(=O)(N2CCOCC2)N2CCOCC2)N2CCOCC2)cc1	inactive: 0.226%
